Values of other authors, collected in publication PMC4621241.

What was measured:
[1] = target: Maltose transporter (Escherichia coli) (UniProt P02916)
[2] = target: Maltose transporter (Escherichia coli) (UniProt P02916); remark: listed apart in the source

In the case of “Maltose binding protein (from UniProt P0AEX9)”, the Kd [1] is given as 80 nM and the Kd [2] is given as 400 nM.

Where two headings read alike, the source gives them in different places.
